Only a part is listed here, and it is no random draw. Some salts and complexes are drawn in separate pieces, as the source files them; their charges need not balance. Calls of active or inactive are those of the source. Cut-off read from the data, not from the text of the source: active = inhibition above about 34%; inconclusive = no clear call, values can overlap the other calls; inactive = below about 11%.

Amino acid sequences for entries named in this document (tags omitted).
UniProt O75874, whole entry R132H: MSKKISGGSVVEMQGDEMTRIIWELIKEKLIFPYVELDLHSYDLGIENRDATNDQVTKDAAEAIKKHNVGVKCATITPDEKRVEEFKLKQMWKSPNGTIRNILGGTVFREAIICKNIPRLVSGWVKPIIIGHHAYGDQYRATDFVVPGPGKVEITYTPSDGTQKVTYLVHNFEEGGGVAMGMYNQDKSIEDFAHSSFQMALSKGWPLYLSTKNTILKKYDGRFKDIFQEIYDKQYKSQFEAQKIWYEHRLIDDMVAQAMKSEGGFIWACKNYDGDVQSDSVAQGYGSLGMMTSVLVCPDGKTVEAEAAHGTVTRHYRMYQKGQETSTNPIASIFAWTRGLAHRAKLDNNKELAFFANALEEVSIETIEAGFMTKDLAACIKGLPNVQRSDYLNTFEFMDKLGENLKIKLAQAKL

This test has as its target Isocitrate dehydrogenase [NADP] cytoplasmic (Homo sapiens) (UniProt O75874). The test is described as follows: PubChem AID 624101.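 Note: 0% = DMSO and 100% = no enzyme.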 Conditions: IDH1 R132H reductase, diaphorase/resazurin fluorescence, 60 min; at 10 µM; active compounds read high. A general note: Resazurin is reduced to fluorescent resorufin, in cell work by metabolically active cells.
With `C/C1=C2N=C(/C=C3N=C(/C(C)=C4\[N-][C@@](C)([C@@H]5N=C1[C@](C)(CCC(=O)NC[C@@H](C)OP(=O)(O)O[C@H]1[C@@H](O)[C@@H](n6cnc7cc(C)c(C)cc76)O[C@@H]1CO)[C@H]5CC(N)=O)[C@@](C)(CC(N)=O)[C@@H]4CCC(N)=O)[C@@](C)(CC(N)=O)[C@@H]\3CCC(N)=O)C(C)(C)[C@@H]/2CCC(N)=O.[C-]#N.[Co+3]`, the inhibition (in general, the relative decrease from the control value, in per cent) is inactive: 0.676%.
As for `C/C1=C2N=C(/C=C3N=C(/C(C)=C4\[N-][C@@](C)([C@@H]5N=C1[C@](C)(CCC(=O)NCC(C)OP(=O)(O)O[C@@H]1[C@H](O)[C@H](n6cnc7cc(C)c(C)cc76)O[C@H]1CO)[C@H]5CC(N)=O)[C@@](C)(CC(N)=O)[C@@H]4CCC(N)=O)[C@@](C)(CC(N)=O)[C@@H]\3CCC(N)=O)C(C)(C)[C@@H]/2CCC(N)=O.[C-]#N.[Co+3]` (some centres not stated), the inhibition is inactive: 0.232%.

Values taken from PubChem BioAssay AID624101 (Broad Institute, 2012).
